{"source": "patent US10196357B2", "about": "“Biaryl compositions and methods for modulating a kinase cascade” (Athenex, Inc., priority 2007, dated 2019)", "system": "WRL-68", "test": "MTT growth inhibition, WRL-68", "type": "cell-based", "conditions": "Homo sapiens, WRL68, 78 h", "procedure": "Samples of the test compounds were formulated in 100% DMSO to obtain 20 mM stock solutions; stored @ 4° C. The IC50s and IC80s were determined as described below. Huh7, WRL-68, PLC/PRF/5, Hep 3B, and Hep G2 human cancer lines were routinely cultured and maintained in a basal medium containing 2% FBS @ 37° C., 5% CO2. […] The assay medium was basal medium/1.5% FBS. Cells were cultured overnight in 96-well plates at 37° C., 5% CO2 prior to KX2-391. MSA and Dasatinib addition. […] 10 μL of 20× dilutions were added to the appropriate wells (n=3) containing 190 μL cancer cell line; 6561 nM to 0.012 nM range of final concentrations. Vehicle control contained cells, no sample. Medium control contained cells, no sample, 0.03% DMSO (highest DMSO concentration present in samples). […] On day 3, 10 μL MTT (5 mg/mL) were added to each well. Cells were incubated in the presence of MTT for 4 hours @ 37° C., 5% CO2. […] Cells were then incubated overnight @ 37°, 5% CO2. OD570 measurements were taken using BioTek Synergy HT multiplatform microplate reader. Growth inhibition curves IC50s and IC80s were determined using GraphPad Prism 5 statistical software.", "note": "pIC50: −log10 of the molar value."}
{"smiles": "Cc1nc(Nc2ncc(C(=O)Nc3c(C)cccc3Cl)s2)cc(N2CCN(CCO)CC2)n1", "note": "[Dasatinib, reference compound]", "values": [{"measurement": "pIC50", "result": 5.25}]}
